The values that follow are results of earlier work, collected in US20150197550A1 (UNIVERSITY OF ULSTER, priority 2012, published 2015).

For the data set the following is noted: in man / in humans, inactivation by DPP-4; cited from earlier work.

With “Glucose-dependent insulinotropic polypeptide [GIP(1-42)]”, the half-life entry was “less than 7 minutes”.
